Assay results as given in ChEMBL document CHEMBL5244211, “Current anti-diabetic agents and their molecular targets: A review” (Eur J Med Chem, 2018).

The chains behind the UniProt entries cited, without tags or fusion partners.
UniProt P27487, whole entry, looked up: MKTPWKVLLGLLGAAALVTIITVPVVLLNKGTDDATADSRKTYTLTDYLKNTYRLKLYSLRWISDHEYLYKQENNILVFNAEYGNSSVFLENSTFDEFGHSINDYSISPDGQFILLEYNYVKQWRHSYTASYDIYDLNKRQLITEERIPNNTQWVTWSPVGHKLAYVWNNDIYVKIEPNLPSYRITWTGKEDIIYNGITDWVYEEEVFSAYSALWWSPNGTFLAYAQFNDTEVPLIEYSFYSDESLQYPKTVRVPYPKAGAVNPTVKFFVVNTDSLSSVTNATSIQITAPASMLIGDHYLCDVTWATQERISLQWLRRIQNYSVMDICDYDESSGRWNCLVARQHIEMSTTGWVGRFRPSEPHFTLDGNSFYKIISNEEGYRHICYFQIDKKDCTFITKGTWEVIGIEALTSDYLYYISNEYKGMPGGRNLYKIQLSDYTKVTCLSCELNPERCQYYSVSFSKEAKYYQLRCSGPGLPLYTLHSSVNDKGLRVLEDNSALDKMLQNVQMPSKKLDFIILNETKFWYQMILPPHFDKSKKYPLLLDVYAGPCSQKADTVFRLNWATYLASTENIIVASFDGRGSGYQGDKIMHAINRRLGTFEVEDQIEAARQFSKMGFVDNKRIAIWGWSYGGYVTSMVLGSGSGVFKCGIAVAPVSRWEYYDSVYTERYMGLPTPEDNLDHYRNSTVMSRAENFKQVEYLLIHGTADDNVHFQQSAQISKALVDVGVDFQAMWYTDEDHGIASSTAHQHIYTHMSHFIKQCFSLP

Key:
Dipeptidyl peptidase 4 [1] = molecular target: T1, Dipeptidyl peptidase 4 (Homo sapiens, UniProt P27487); test: Inhibition of DPP4 (unknown origin) using Gly-Pro-7-amido-4-methylcoumarin as substrate incubated for 30 mins by fluorescence analysis
Dipeptidyl peptidase 4 [2] = molecular target: T1, Dipeptidyl peptidase 4; test: Inhibition of DPP4 (unknown origin)

`CC#CCN1C(N2CCC[C@@H](N)C2)=NC2C1C(=O)N(Cc1cccnc1C#N)C(=O)N2Cc1cccnc1C#N` (some centres not stated) gave an IC50 (Dipeptidyl peptidase 4 [1]) of 0.09 nM.
`CC#CCN1C(N2CCC[C@@H](NC(=O)OC(C)(C)C)C2)=NC2N=C3N(C)C(=O)CN3C(=O)C21` (some centres not stated) was tested, and the IC50 (Dipeptidyl peptidase 4 [2]) was 1.7 nM.
